Values of other authors, collected in PMC7383075 (Journal of Nuclear Medicine, 2020).

System: glioblastomas
Settings: ref [31]
From the text: Contributing to the potential for clinical translation of this tracer is the use of the NIR fluorophore IRDye 800CW. This dye is widely used in the development of targeted fluorescence imaging approaches, and several studies already have shown the first successful clinical applications using this fluorophore. […] Also, IRDye 800CW coupled to the monoclonal antibody cetuximab was successfully used fo ...

## IRDye 800CW coupled to the monoclonal antibody cetuximab: IRDye 800CW coupled to the monoclonal antibody cetuximab
  detection of glioblastomas: successfully used for detection of glioblastomas
